## Ab-91 heavy chain CDR variants: yeast mating affinities

The measurements come from Engelhart et al. 2022 (doi:10.1038/s41597-022-01779-4) through the FLAb antibody collection.

Target peptide (SARS-CoV-2 spike, HR2 region): PDVDLGDISGINAS

Parent scFv Ab-91: VL joined to VH by a (GGGGS)3 linker. Changes lie in the heavy chain CDRs alone.
VL: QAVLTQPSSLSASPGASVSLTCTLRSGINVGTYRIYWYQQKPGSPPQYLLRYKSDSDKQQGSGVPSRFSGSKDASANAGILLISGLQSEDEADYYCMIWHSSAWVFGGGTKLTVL
VH: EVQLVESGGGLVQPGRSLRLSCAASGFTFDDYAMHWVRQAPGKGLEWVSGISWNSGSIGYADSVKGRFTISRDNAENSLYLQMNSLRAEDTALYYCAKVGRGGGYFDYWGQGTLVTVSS

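The library (AAYL51) carries one to three amino acid substitutions per variant, with no insertions or deletions. The assay is AlphaSeq: two haploid yeast populations carry antibody and antigen on their surface. Binding brings cells together so that they mate, and sequencing counts the barcode pairs among the diploids. A regression on co-assayed BCL2-family reference pairs converts the normalised counts of each replicate to an apparent Kd. Each pool was mated in three replicate cultures.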

Changes read parent residue, position, new residue, counted from the first residue of the VH shown. Affinities are written as log10 Kd with Kd in nM; a lower number is a better binder. A pair that was not seen in that replicate is written "n.d."; this usually means weak binding, but a binder can also be missed. Parent in this assay: reference entry 1.86, copy in this library 0.88.

{"changes": "F27P/S63H/K65L", "log10 Kd (nM) by replicate": "n.d. n.d. n.d.", "signal with controls": "0/9"}
{"changes": "H35W/G59F/F106C", "log10 Kd (nM) by replicate": "n.d. 5.87 n.d.", "signal with controls": "3/9 (4.56)"}
{"changes": "T28C/G59P/S63L", "log10 Kd (nM) by replicate": "4.06 6.65 4.78", "signal with controls": "4/9 (4.80)"}
{"changes": "Y32W/G50K/I51L", "log10 Kd (nM) by replicate": "n.d. 5.20 5.62", "signal with controls": "4/9 (4.90)"}
{"changes": "H35Y/W53M/V64A", "log10 Kd (nM) by replicate": "4.47 n.d. n.d.", "signal with controls": "3/9 (5.00)"}
{"changes": "G26W/T28D/G103R", "log10 Kd (nM) by replicate": "4.60 4.60 5.76", "signal with controls": "5/9 (4.66)"}
{"changes": "G102W/G103A/D107M", "log10 Kd (nM) by replicate": "n.d. n.d. n.d.", "signal with controls": "1/9 (4.26)"}
{"changes": "G26W/Y32E/Y105S", "log10 Kd (nM) by replicate": "n.d. n.d. n.d.", "signal with controls": "0/9"}
{"changes": "F29N/S57R", "log10 Kd (nM) by replicate": "4.41 n.d. n.d.", "signal with controls": "2/9 (4.54)"}
{"changes": "M34R/W53L/Y60Q", "log10 Kd (nM) by replicate": "n.d. 3.65 n.d.", "signal with controls": "1/9 (4.29)"}
{"changes": "Y32F/K65M/F106M", "log10 Kd (nM) by replicate": "n.d. 3.95 4.98", "signal with controls": "5/9 (4.70)"}
{"changes": "D30R/H35E/G103E", "log10 Kd (nM) by replicate": "n.d. 4.73 n.d.", "signal with controls": "0/9"}
{"changes": "K65F/G100F/Y105F", "log10 Kd (nM) by replicate": "1.14 1.14 0.73", "signal with controls": "1/9 (4.44)"}
{"changes": "G26F/N54M/G104Y", "log10 Kd (nM) by replicate": "n.d. n.d. n.d.", "signal with controls": "2/9 (4.01)"}
{"changes": "D31G/H35R/D107Y", "log10 Kd (nM) by replicate": "4.50 n.d. n.d.", "signal with controls": "1/9 (3.99)"}
{"changes": "V64Q/G104V", "log10 Kd (nM) by replicate": "n.d. n.d. n.d.", "signal with controls": "0/9"}
{"changes": "D31I/M34P/V99A", "log10 Kd (nM) by replicate": "n.d. n.d. n.d.", "signal with controls": "2/9 (5.36)"}
{"changes": "W53G/I58P/F106M", "log10 Kd (nM) by replicate": "n.d. 5.44 5.72", "signal with controls": "3/9 (5.42)"}

2 of these entries, quoted again:

{"changes": "Y32F/K65M/F106M", "log10 Kd (nM) by replicate": "n.d. 3.95 4.98", "signal with controls": "5/9 (4.70)"}
{"changes": "G102W/G103A/D107M", "log10 Kd (nM) by replicate": "n.d. n.d. n.d.", "signal with controls": "1/9 (4.26)"}

As a blank, each scFv also met three strains without target: over library AAYL51, 21% of these pairings were detected, typically at 4.54 and seldom below 3.26. The control count says in how many pairings with the empty strains this scFv gave a signal, with their mean in brackets.